System: NC[C@H]1O[C@H](O[C@H]2[C@H](O)[C@@H](O)[C@H](N)C[C@@H]2N)[C@H](N)[C@@H](O)[C@@H]1O
Experiment: purified protein, by the assay type
Conditions: other: APH(3′)-II; pH 7.5

APH(3′)-IIa (Klebsiella pneumoniae)
Km: 1 µM

From patent publication US7220727B2, “Aminoglycosides as antibiotics” (priority 2000, dated 2007)
